# Test system: APP cleavage through the action of beta and gamma secretase in HEK293 cells overexpressing BACE/swAPP
# Experiment: Abeta 1-40 enzyme immunoassay of culture medium from HEK293 cells overexpressing BACE/swAPP (APP cleavage)
# Format: cell-based, human
# Details: 10^−3 dilution of working concentration of Table 4 (A 1.8, B 2.0, C 0.3, D 0.1 millimolar); 6 days of culture; control without compound 107.1
row,SMILES,"Abeta 1-40 in medium (reduction of APP cleavage), dilution of test compound 10^−3 [picograms per milliliter]"
1,"NCCCC(O)(P(=O)(O)O)P(=O)(O)O [A, alendronate sodium]",47.9
2,"CC(O)(P(=O)(O)O)P(=O)(O)O [B, etidronatic acid]",34.4
3,"O=P(O)(O)C(O)(Cc1cccnc1)P(=O)(O)O [Compound C, risedronate sodium]",59.4

# Same assay, conditions: 10^−4 dilution of working concentration of Table 4 (A 1.8, B 2.0, C 0.3, D 0.1 millimolar); 6 days of culture; control without compound 107.1
row,SMILES,"Abeta 1-40 in medium (reduction of APP cleavage), dilution of test compound 10^−4 [picograms per milliliter]"
1,"NCCCC(O)(P(=O)(O)O)P(=O)(O)O [A, alendronate sodium]",58.4
2,"CC(O)(P(=O)(O)O)P(=O)(O)O [B, etidronatic acid]",49.6
3,"O=P(O)(O)C(O)(Cc1cccnc1)P(=O)(O)O [Compound C, risedronate sodium]",64.0
4,"O=P(O)(O)C(O)(Cn1ccnc1)P(=O)(O)O [Compound D, zolendronic acid]",1.9
